# scFv variants of Ab-91 (heavy chain) against a SARS-CoV-2 spike peptide

Data: MIT Lincoln Laboratory AlphaSeq set, Engelhart et al. 2022, doi:10.1038/s41597-022-01779-4, as distributed in FLAb.

Target peptide (SARS-CoV-2 spike, HR2 region): PDVDLGDISGINAS

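The starting antibody came from a phage panning campaign against this peptide. The library (AAYL51) carries one to three amino acid substitutions per variant, with no insertions or deletions. The assay is AlphaSeq: two haploid yeast populations carry antibody and antigen on their surface. After mating in shaken culture at 30 °C for 16 h, diploids were selected and their barcode pairs sequenced. Scores were corrected for input abundance and mapped to Kd with protein pairs of known affinity run in the same pool. Each pool was mated in three replicate cultures.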

Each scFv is VL, a 15-residue (Gly4Ser)3 linker, VH, as in the parent Ab-91, and differs from it in the CDRs of the heavy chain only.
VL: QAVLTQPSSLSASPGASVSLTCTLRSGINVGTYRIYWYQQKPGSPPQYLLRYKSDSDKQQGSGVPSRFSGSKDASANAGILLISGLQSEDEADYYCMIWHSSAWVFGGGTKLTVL
VH: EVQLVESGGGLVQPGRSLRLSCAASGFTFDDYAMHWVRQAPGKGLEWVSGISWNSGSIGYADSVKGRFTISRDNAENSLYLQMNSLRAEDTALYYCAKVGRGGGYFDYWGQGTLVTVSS

Each variant is given by its three heavy chain CDRs, as the data file delimits them; those of the parent are GFTFDDYAMH, GISWNSGSIGYADSVK, VGRGGGYFDY. This list gathers variants with a substitution at G100 (VH, numbered from residue 1). Values are log10 of the apparent Kd in nM; lower means stronger binding. The mean shown is taken over the replicates in which the pair was detected. A pair that was not seen in that replicate is written "nd"; this usually means weak binding, but a binder can also be missed. Order: sorted from the lowest average up, undetected variants last. As a blank, each scFv also met three strains without target: over library AAYL51, 21% of these pairings were detected, typically at 4.54 and seldom below 3.26. Also given: how often the same scFv was detected with the empty control strains, with their mean in brackets. For reference, the parent read 1.86 as the reference entry and 0.88 as a member of this library.

| CDR-H1 | CDR-H2 | CDR-H3 | replicates, log10 nM | mean log10 Kd (nM) | empty controls |
|---|---|---|---|---|---|
| GFTFDDYAMH | GISWNAGSSGYADSVK | VDRGGGYFDY | 1.50 1.39 0.94 | 1.28 | 2 of 9 (2.80) |
| GFTFDNYAMH | GISWNSGSIGYADSVK | VERGGGIFDY | 1.89 2.14 1.68 | 1.90 | 6 of 9 (4.57) |
| GFTFDDYAMH | GISWNSGSIGYAASVK | VKRGGGYFDY | 2.30 2.12 1.79 | 2.07 | 5 of 9 (4.66) |
| GFTFDSYAMH | GISWNSGSNGYADSVK | VNRGGGYFDY | 2.77 2.66 2.47 | 2.63 | 4 of 9 (5.12) |
| GFTFDLYAMH | GISWNSGSIGYRDSVK | VVRGGGYFDY | 2.93 3.22 2.77 | 2.97 | 6 of 9 (4.74) |
| GFTFDDYAMH | GIQWNSGSIGYADSVK | VCRGGGYFCY | nd 3.40 3.03 | 3.22 | 1 of 9 (3.47) |
| GFTFDDYAMH | GISWNSGSIGYADSVK | VVKGGKYFDY | 3.44 nd nd | 3.44 | 1 of 9 (4.59) |
| GFTFRDYAMH | GIDWNSGSIGYADSVK | VWRGGGYFDY | 3.05 4.00 nd | 3.53 | 0 of 9 |
| GFSFDYYAMH | GISWNSGSIGYADSVK | VTRGGGYFDY | 3.19 3.26 4.16 | 3.54 | 2 of 9 (5.10) |
| GFTQEDYAMH | GISWNSGSIGYADSVK | VPRGGGYFDY | 3.34 nd 3.99 | 3.66 | 2 of 9 (4.09) |
| GFTFDDYAMY | GISWNSGSIGYADSVK | VFRGGGYFTY | 2.94 nd 4.67 | 3.81 | 1 of 9 (4.09) |
| FFTFDDFAMH | GISWNSGSIGYADSVK | VDRGGGYFDY | 3.70 4.27 nd | 3.99 | 1 of 9 (3.94) |
| GFIFDDYAMH | GISWNSGSIGYADMVK | VIRGGGYFDY | 4.08 4.48 3.97 | 4.18 | 7 of 9 (5.22) |
| GFTFDDYAMH | GISRNSGSIGYADSVK | VYRGGGYFDY | nd nd 4.19 | 4.19 | 1 of 9 (5.24) |
| GFTFDDYARH | GISWNSGSIGYADSVK | TQRGGGYFDY | nd 4.34 nd | 4.34 | 2 of 9 (3.33) |
| GFTFDDYAMH | GISTNSGHIGYADSVK | VTRGGGYFDY | 4.55 nd nd | 4.55 | 1 of 9 (5.43) |
| GFTFDDYAMH | GISWNSGSIGYADSVD | DRRGGGYFDY | 4.85 4.27 nd | 4.56 | 4 of 9 (4.70) |
| GFTFPAYAMH | GISWNSGSIGYADSVK | VCRGGGYFDY | 5.16 4.62 3.91 | 4.56 | 3 of 9 (4.32) |
| GFTFDDYAMH | GISYNSGSIGYADSMK | VLRGGGYFDY | nd nd 4.78 | 4.78 | 3 of 9 (5.28) |
| GFTFDDYAMH | GISWNSNSIGYADSVK | VNRGGGYFDY | 4.61 4.97 nd | 4.79 | 0 of 9 |
| GFTQDDYAMH | GISFNSGSIGYADSVK | VPRGGGYFDY | nd 4.54 5.14 | 4.84 | 4 of 9 (5.57) |
| GFTFDDYAMH | GISWNSGSIGYADSVK | VPRCGGYFDY | 4.32 5.30 5.14 | 4.92 | 4 of 9 (4.71) |
| GFTTDDYAMH | GISWNHGSIGYADSVK | VRRGGGYFDY | 4.25 5.01 5.98 | 5.08 | 7 of 9 (4.80) |
| GFTFDDYAMQ | GISWNSGSIGYADSVK | VQRGTGYFDY | nd 5.22 nd | 5.22 | 2 of 9 (4.32) |
| GFTFDRYAMH | GYSWNSGSIGYADSVK | VRRGGGYFDY | 5.23 nd nd | 5.23 | 1 of 9 (4.02) |
| GATFDDYAMH | GISWNSGSIGIADSVK | VWRGGGYFDY | 5.07 6.21 4.75 | 5.35 | 4 of 9 (4.84) |
| GFTFDDYAMH | GISWNSHSIGYADSVK | LNRGGGYFDY | 5.73 nd 5.44 | 5.58 | 6 of 9 (4.57) |
| GFTFDDYGMG | GISWNSGSIGYADSVK | VARGGGYFDY | 5.61 nd nd | 5.61 | 6 of 9 (4.82) |
| GFTFDDYWVH | GISWNSGSIGYADSVK | VYRGGGYFDY | 5.29 5.96 nd | 5.62 | 4 of 9 (5.44) |
| GFTFDDYAMH | GISWNSGSRGYADSVK | VERKGGYFDY | nd nd nd | nd | 0 of 9 |
| GFTFDDYAWH | GISWNSGSIGSADSVK | VNRGGGYFDY | nd nd nd | nd | 0 of 9 |
| GFTFTDYAMH | GISWNSGSIGYADSVK | VNRGGGYFDY | nd nd nd | nd | 1 of 9 (4.03) |
| GFTFDDYAMH | GIWWKSGSIGYADSVK | VDRGGGYFDY | nd nd nd | nd | 0 of 9 |
| RFTFDDYAMH | GISWNSGSIGYADSVK | VCRGGGYFDF | nd nd nd | nd | 1 of 9 (2.80) |
| GFTFDDYAMH | GISWQSGSIGYADSVK | VLRGGGYFDY | nd nd nd | nd | 1 of 9 (4.48) |
| GFTFDDYAMY | GISWNSGSIGYADSKK | VDRGGGYFDY | nd nd nd | nd | 0 of 9 |
| RFTFDDYAMH | GISWNSGSIGSADSVK | VERGGGYFDY | nd nd nd | nd | 0 of 9 |
| GFTFDDYAMH | GISWQSMSIGYADSVK | VMRGGGYFDY | nd nd nd | nd | 0 of 9 |
| GFTFDDYAMH | KISWNSGSIGYADSVK | VDRGGGYFDS | nd nd nd | nd | 1 of 9 (4.34) |
| GFTPDDYAMH | KISWNSGSIGYADSVK | VLRGGGYFDY | nd nd nd | nd | 1 of 9 (3.35) |
| GFTFDDYAMH | GISGNSGSIGYADSVK | VTRGGGYFDV | nd nd nd | nd | 2 of 9 (4.68) |
| GFTFDDYAMH | GISWNSGSIGYADSVK | VLRGGGYFDY | nd nd nd | nd | 1 of 9 (3.35) |
| GFTFGDYAMH | GISWNSWSIGYADSVK | VSRGGGYFDY | nd nd nd | nd | 0 of 9 |

The closing 3 entries, repeated:

| CDR-H1 | CDR-H2 | CDR-H3 | replicates, log10 nM | mean log10 Kd (nM) | empty controls |
|---|---|---|---|---|---|
| GFTFDDYAMH | GISGNSGSIGYADSVK | VTRGGGYFDV | nd nd nd | nd | 2 of 9 (4.68) |
| GFTFDDYAMH | GISWNSGSIGYADSVK | VLRGGGYFDY | nd nd nd | nd | 1 of 9 (3.35) |
| GFTFGDYAMH | GISWNSWSIGYADSVK | VSRGGGYFDY | nd nd nd | nd | 0 of 9 |